Antibody variant affinities, Ab-14 light chain, assay 1

Binding partner: SARS-CoV-2 spike HR2 peptide, sequence PDVDLGDISGINAS.

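The starting antibody came from a phage panning campaign against this peptide. Variants in AAYL50 differ from the parent at up to three CDR positions; double and triple changes were sampled at random. The assay is AlphaSeq: two haploid yeast populations carry antibody and antigen on their surface. Mating (16 h, 30 °C) was followed by selection of diploids and sequencing of their barcodes. Read counts were normalised to the haploid input and turned into Kd by a linear fit to BCL2-family pairs of known affinity, for each replicate. The assay was run in three technical replicates.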

The variants keep the heavy chain, the linker and the frameworks of Ab-14 (scFv order VH, the linker GGGGSGGGGSGGGGS, VL).
VH: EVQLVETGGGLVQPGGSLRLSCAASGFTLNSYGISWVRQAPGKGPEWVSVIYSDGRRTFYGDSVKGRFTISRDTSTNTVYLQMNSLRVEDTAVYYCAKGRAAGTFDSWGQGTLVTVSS
VL: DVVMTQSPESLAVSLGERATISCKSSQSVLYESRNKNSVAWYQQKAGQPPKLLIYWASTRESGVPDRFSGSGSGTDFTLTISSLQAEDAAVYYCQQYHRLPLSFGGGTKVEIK

Positions count from residue 1 of the parent VL; R60Q puts Q in place of R. Every variant below is changed at P101 of the VL (sequential numbering). Scale: log10 of Kd in nM, estimated from mating counts; low values are strong binders. The mean shown is taken over the replicates in which the pair was detected. "not detected" marks a missing value. The strain was present, yet no cells mated with the target were sequenced in any replicate, which points to weak or no binding. Nonspecific signal, from three strains lacking the peptide, appeared in 18% of pairings of library AAYL50, centred on 4.19 (5% of these signals below 2.99); values are not corrected for it.

changes,mean log10 Kd (nM),seen in
R60Q/P101A/L102Q,5.20,1/3
S58H/P101E/L102F,not detected,0/3
K36W/R60Q/P101R,4.61,2/3
V29F/P101V,1.56,3/3
Q27Y/Q95M/P101R,not detected,0/3
R60N/P101H,not detected,0/3
R99Q/P101W,not detected,0/3
P101F/S103D,1.41,3/3
Y31S/P101L/S103H,1.25,3/3
K36I/T59M/P101L,not detected,0/3
S33P/K36Y/P101T,not detected,0/3
S38K/R99W/P101E,not detected,0/3
Q96R/P101W,1.27,3/3
A57Q/S62L/P101F,3.10,3/3
S38R/Y97L/P101R,4.40,3/3
Y31Q/R99N/P101V,not detected,0/3
V39H/S58D/P101I,not detected,0/3
K36F/P101C,1.07,3/3
K24P/P101W/L102Q,4.34,1/3
H98K/P101K/S103F,2.26,3/3
S38Q/P101T,1.76,3/3
K36T/P101C,2.02,3/3
E32L/S62P/P101S,not detected,0/3
A57Q/P101Q,4.17,1/3
S58C/H98F/P101T,not detected,0/3
P101Q,not detected,0/3
A57T/R60V/P101L,not detected,0/3
N35Y/P101Y/S103A,5.88,1/3
V39M/L100I/P101E,not detected,0/3
K36S/E61S/P101E,4.24,1/3
S38D/E61W/P101V,3.36,3/3
L30F/P101S,not detected,0/3
K24G/K36C/P101Y,5.12,1/3
S33D/E61N/P101T,not detected,0/3
S25Y/W56N/P101N,0.89,3/3
K24A/P101A,not detected,0/3
N35Y/A40I/P101L,3.55,1/3
S26K/Q95A/P101R,not detected,0/3
K36L/Y97I/P101S,not detected,0/3
Q27M/R60E/P101W,not detected,0/3
K36F/H98F/P101T,1.20,3/3
T59E/P101L,0.55,3/3
S28E/K36C/P101N,4.45,2/3
R34S/P101F/L102H,not detected,0/3
Q27P/R34G/P101L,not detected,0/3
E61L/Q96A/P101V,not detected,0/3
S38H/R99C/P101S,1.99,3/3
S58D/L100H/P101W,0.67,3/3
L30M/N37T/P101D,2.02,3/3
Y31C/R60V/P101H,not detected,0/3
E32F/R60L/P101V,not detected,0/3
S25Y/S38Q/P101I,1.51,3/3
T59V/S62R/P101E,0.85,3/3
N35F/T59Q/P101D,1.71,3/3
S25N/N35Y/P101F,5.30,1/3
V29D/T59E/P101S,1.04,3/3
N35G/S62K/P101S,1.61,3/3
S38L/S62T/P101C,3.93,1/3
S33I/P101V/L102Q,not detected,0/3
E61V/S62D/P101E,not detected,0/3

Extract of 8 entries:

{"changes": "K24A/P101A", "mean log10 Kd (nM)": "not detected", "seen in": "0/3"}
{"changes": "S58H/P101E/L102F", "mean log10 Kd (nM)": "not detected", "seen in": "0/3"}
{"changes": "R99Q/P101W", "mean log10 Kd (nM)": "not detected", "seen in": "0/3"}
{"changes": "K36W/R60Q/P101R", "mean log10 Kd (nM)": "4.61", "seen in": "2/3"}
{"changes": "P101Q", "mean log10 Kd (nM)": "not detected", "seen in": "0/3"}
{"changes": "S33P/K36Y/P101T", "mean log10 Kd (nM)": "not detected", "seen in": "0/3"}
{"changes": "T59E/P101L", "mean log10 Kd (nM)": "0.55", "seen in": "3/3"}
{"changes": "S28E/K36C/P101N", "mean log10 Kd (nM)": "4.45", "seen in": "2/3"}

Values reported by Engelhart et al. 2022, doi:10.1038/s41597-022-01779-4 (FLAb copy).